Measured values: ChEMBL document CHEMBL1130474, “Conformationally restricted arginine analogues as inhibitors of human nitric oxide synthase” (Bioorg Med Chem Lett, 1997)

Chains of the proteins cited; added tags and fusions are not shown.
UniProt P29475, whole entry: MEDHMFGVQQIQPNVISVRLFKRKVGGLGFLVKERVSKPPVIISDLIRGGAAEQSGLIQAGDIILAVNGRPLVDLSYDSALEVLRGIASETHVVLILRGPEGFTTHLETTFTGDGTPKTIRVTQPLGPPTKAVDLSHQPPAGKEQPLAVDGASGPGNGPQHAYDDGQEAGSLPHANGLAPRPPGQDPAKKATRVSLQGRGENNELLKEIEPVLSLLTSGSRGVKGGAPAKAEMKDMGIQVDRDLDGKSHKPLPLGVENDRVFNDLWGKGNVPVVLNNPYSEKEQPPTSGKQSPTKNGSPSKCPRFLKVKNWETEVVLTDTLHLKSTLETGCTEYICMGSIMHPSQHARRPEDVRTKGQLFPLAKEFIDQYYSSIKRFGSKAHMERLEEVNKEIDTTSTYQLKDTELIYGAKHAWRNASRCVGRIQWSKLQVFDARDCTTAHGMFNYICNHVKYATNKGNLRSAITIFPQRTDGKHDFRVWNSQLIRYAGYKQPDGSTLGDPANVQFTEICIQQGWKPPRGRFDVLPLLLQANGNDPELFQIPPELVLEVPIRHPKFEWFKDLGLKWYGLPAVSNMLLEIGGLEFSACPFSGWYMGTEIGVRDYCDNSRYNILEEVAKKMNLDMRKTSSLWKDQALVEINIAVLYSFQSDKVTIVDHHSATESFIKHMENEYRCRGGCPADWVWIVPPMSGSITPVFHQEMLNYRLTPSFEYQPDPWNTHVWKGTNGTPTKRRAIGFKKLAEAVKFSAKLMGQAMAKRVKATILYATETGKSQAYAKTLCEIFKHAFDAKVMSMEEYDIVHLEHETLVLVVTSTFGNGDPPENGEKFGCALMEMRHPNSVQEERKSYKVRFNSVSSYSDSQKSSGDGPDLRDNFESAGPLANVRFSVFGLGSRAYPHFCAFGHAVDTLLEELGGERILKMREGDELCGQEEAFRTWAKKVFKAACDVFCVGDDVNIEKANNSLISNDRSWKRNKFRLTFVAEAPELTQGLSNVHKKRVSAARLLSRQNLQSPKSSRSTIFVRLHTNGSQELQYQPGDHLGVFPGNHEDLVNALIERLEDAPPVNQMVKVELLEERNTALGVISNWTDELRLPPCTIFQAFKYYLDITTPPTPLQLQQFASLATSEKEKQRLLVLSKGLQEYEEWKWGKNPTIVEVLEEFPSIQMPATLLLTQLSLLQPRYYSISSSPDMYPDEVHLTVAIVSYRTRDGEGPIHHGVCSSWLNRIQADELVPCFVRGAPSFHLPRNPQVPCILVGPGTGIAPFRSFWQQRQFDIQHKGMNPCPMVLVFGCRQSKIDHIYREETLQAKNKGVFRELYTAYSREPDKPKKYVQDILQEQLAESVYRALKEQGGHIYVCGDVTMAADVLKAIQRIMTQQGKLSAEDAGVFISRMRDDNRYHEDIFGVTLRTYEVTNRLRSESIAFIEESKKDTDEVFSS

Target: Nitric oxide synthase 1 (Homo sapiens, UniProt P29475)
Assay: Inhibitory constant for the inhibition of human Neuronal nitric oxide synthase

CC(=N)NCCC[C@H](N)C(=O)O [L-NIO]
pKi: 6.64

pKi: −log10 of the molar value.
